Earlier results as cited in US9163240B2, “SR-BI mutation as a predictor of low progesterone levels and poor fetal viability during pregnancy” (The Johns Hopkins University, priority 2009, dated 2015).

Legend:
LDL receptor = conditions: early time period after hCG stimulation; cited from earlier work
SR-BI RNA = conditions: 24 h after stimulation by hCG; cited from earlier work

For hCG: human chorionic gonadotropin (hCG), the LDL receptor expression (LDL receptor) is listed as “initially increased but then decreased to low basal levels” and the “SR-BI RNA levels increase” value (SR-BI RNA) is listed as roughly 30 fold.
